In US6986997B1, “Method for screening using an OAT1 transporter protein” (Fuji Bio Medix Co., Ltd., priority 1997, dated 2006):

Target: T1, rat OAT1 (Rattus norvegicus, UniProt O35956)
T1 sequence (O35956 1-551): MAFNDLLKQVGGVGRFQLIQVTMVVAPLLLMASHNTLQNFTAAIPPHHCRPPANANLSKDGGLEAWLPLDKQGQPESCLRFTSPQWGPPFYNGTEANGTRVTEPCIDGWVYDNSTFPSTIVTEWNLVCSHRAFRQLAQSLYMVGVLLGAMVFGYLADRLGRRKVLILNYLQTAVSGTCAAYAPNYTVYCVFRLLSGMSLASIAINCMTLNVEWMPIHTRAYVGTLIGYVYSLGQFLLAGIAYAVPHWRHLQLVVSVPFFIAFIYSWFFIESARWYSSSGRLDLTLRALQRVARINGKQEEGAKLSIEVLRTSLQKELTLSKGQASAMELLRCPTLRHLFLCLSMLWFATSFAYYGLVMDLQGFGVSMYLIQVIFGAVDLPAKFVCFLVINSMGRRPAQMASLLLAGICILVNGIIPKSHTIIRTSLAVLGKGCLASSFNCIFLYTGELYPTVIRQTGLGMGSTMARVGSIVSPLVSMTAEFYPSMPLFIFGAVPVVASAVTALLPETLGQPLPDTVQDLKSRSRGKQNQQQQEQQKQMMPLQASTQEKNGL
Assay: Uptake of radio labeled substances into oocytes expressing OAT1
Settings: versus control oocytes not injected with cRNA

α-ketoglutarate [^14C-α-ketoglutarate]
transport of radio labeled substance into oocytes expressing OAT1: transported
